The numbers were not newly measured in patent US20160271139A1, “METHOD FOR NON-TOXIC TREATMENT FOR DRUG WITHDRAWAL” (DEMERX, INC., priority 2013, published 2016), which cites them from elsewhere.

The conditions of this data set: higher doses; cited from earlier work.

With ibogaine, the Hallucinations entry was “caused hallucinations”.
